Ab-91 heavy chain CDR variants: yeast mating affinities

Values reported by Engelhart et al. 2022, doi:10.1038/s41597-022-01779-4 (FLAb copy).

Target: peptide PDVDLGDISGINAS, taken from heptad repeat 2 (HR2) of SARS-CoV-2 spike.

Ab-91 is the parent antibody, in scFv form: VL, then three GGGGS repeats, then VH. The light chain is unchanged in all variants.
VL: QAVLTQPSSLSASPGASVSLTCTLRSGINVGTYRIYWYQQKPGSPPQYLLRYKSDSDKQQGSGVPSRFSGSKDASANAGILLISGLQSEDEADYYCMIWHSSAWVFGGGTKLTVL
VH: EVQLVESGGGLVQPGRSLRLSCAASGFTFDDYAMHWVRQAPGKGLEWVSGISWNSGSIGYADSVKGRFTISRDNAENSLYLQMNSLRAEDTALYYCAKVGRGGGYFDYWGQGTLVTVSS

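Phage display of a naive human antibody library on the peptide gave the parent. Variants in AAYL51 differ from the parent at up to three CDR positions; double and triple changes were sampled at random. The scFvs were displayed on barcoded MATa yeast, the peptide on MATalpha yeast. Mating (16 h, 30 °C) was followed by selection of diploids and sequencing of their barcodes. Scores were corrected for input abundance and mapped to Kd with protein pairs of known affinity run in the same pool. Mating was done three times.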

Variants are written as CDR1, CDR2 and CDR3 of the heavy chain (limits as in the source). Parent: GFTFDDYAMH, GISWNSGSIGYADSVK, VGRGGGYFDY.
Affinities are written as log10 Kd with Kd in nM; a lower number is a better binder.
"nd" means that the variant was in the library but no mating with the target was seen in that replicate; the authors take this as a sign of poor binding, and no number exists.

| CDR-H1 | CDR-H2 | CDR-H3 | log10 Kd, replicates | empty controls |
|---|---|---|---|---|
| GFTFDDYAMH | GVSWNSGSIGYADSVK | TGRGGGFFDY | 1.27 / 1.18 / 1.15 | 3 of 9 (4.06) |
| GFTFDRYAMH | GISWNSGSIGYALSVK | VGRGGGYNDY | 3.09 / 2.75 / nd | 1 of 9 (2.12) |
| YFTHDDYAMH | GISWNSGSIGYADSVK | VGRGGGYFDY | nd / nd / 3.76 | 1 of 9 (3.67) |
| GFTFDDYAMH | GISWNSGSCGYASSVK | VGRGDGYFDY | 4.38 / nd / nd | 1 of 9 (3.91) |
| GFTFDDYAMH | GISWQSGSIGYADSVK | VGRGGKYKDY | 4.26 / 4.40 / 3.59 | 4 of 9 (4.82) |
| GFTFDDYAAH | GISWNSGSIGYADSVT | VGRGGGYFVY | nd / nd / nd | 0 of 9 |
| GFTFDDYAMH | GISWNSGSFGYFDSVK | VSRGGGYFDY | nd / nd / 3.76 | 0 of 9 |
| GFTFDDYAMH | GISWISGSIGYLDSVK | VGRGGGYFNY | 4.25 / 6.08 / nd | 7 of 9 (4.83) |
| GFTFRDYAMH | GISWNSNSIVYADSVK | VGRGGGYFDY | 4.02 / 3.95 / nd | 3 of 9 (4.05) |
| GFTFEDYAMH | GISWNSGSIGYADSVK | VQRGGGGFDY | 3.93 / 4.59 / 5.06 | 4 of 9 (4.31) |
| GFTFDDYAMH | GISWISGSIGYADSVK | VGRGGGAFDY | 4.06 / nd / 4.52 | 5 of 9 (4.70) |
| GFTFDDYAMH | GISWASGSIGYADSGK | VGNGGGYFDY | 4.78 / 6.00 / nd | 3 of 9 (4.49) |
| GFTNDDYAMH | GISWNSGSIGYADSVK | VGRGGGYFDY | nd / nd / nd | 0 of 9 |
| GFTFDHYAMH | GISTNLGSIGYADSVK | VGRGGGYFDY | nd / 4.42 / nd | 1 of 9 (4.01) |
| VFTFDDYAMH | GIEWNSGSIGYADSVK | VGRGGGYFDT | nd / nd / nd | 0 of 9 |
| GFTRKDYAMH | GISWNSGSIGYRDSVK | VGRGGGYFDY | 4.58 / 5.20 / 4.40 | 3 of 9 (4.54) |
| GFTFDDYAMH | GIKRNSGSIGYADSVK | VGTGGGYFDY | nd / nd / nd | 1 of 9 (4.48) |
| GFDFDDYAMH | GESWNSGSIGYADSVK | VGRGGGYFHY | nd / nd / nd | 1 of 9 (3.05) |
| GFSFDDYAMH | GISWNSGSIGYADSVK | VGRGGGYFDY | nd / 3.61 / nd | 1 of 9 (5.74) |
| NFTTDDYAMH | GISWNSGSIGYADSVK | VGRGGGWFDY | nd / 3.67 / nd | 2 of 9 (5.21) |
| AFTFTDYAMH | GISWNSGSIGYADSVK | VGRGGGHFDY | 3.40 / 3.57 / 2.96 | 3 of 9 (4.67) |
| GFTFDDYAMH | GISWNSGSIGYACVVK | VGRGGGRFDY | 4.41 / nd / nd | 2 of 9 (4.84) |
| RFTFDDYAMH | GISWNSGSIGYADSVK | NKRGGGYFDY | nd / 3.26 / nd | 2 of 9 (4.43) |
| GFTFDDYAMH | GISWDSGSIGYADSVK | VGRRGGDFDY | 4.11 / 4.21 / 4.28 | 6 of 9 (4.61) |
| GFTFDDAAMH | GISDNSGSIGYADSKK | VGRGGGYFDY | nd / nd / 4.17 | 2 of 9 (5.41) |
| GFTFDDYAMH | GISWNSGFIGYHDSVK | VGRGGGYFDY | 2.52 / 2.73 / 2.71 | 4 of 9 (4.83) |
| GFTFDDYAMI | GISWNSGSIGYADSVK | VGRGGGGFDR | nd / nd / nd | 0 of 9 |
| GFTFNDYAMH | GISWNSGSIGYCDSVK | VGRGGGNFDY | nd / nd / nd | 1 of 9 (3.88) |
| GFTQDDYAMH | GISWNSGSITYADSVK | VGRGGGYFDY | nd / nd / nd | 1 of 9 (3.97) |
| GYTFDDYAMH | GISWNSGSIGYADSVK | VPRGGGYKDY | nd / nd / nd | 0 of 9 |
| GFTFDMYAMH | GCSWNSGSIGYADSVK | VGRGQGYFDY | nd / nd / nd | 1 of 9 (2.87) |
| GFTFDDYAMH | GISWNMGSIDYADSVK | VGRGSGYFDY | nd / nd / nd | 2 of 9 (3.70) |
| GFFFDDYAMH | GISWNSGSIGYADSVK | VGRGGCYFFY | 1.14 / 1.39 / 0.72 | 2 of 9 (4.45) |
| GFTFDDYAYH | GISWNSGKIGYADSMK | VGRGGGYFDY | 5.25 / 6.40 / 5.80 | 2 of 9 (5.56) |
| MFTFDDYAMH | GISWESGSIGYADSVK | VRRGGGYFDY | nd / 5.14 / 5.05 | 1 of 9 (4.97) |
| GLTFDDYAMH | GISWNSGSIGYADSVK | VGRGRGHFDY | nd / 3.67 / 4.03 | 2 of 9 (4.15) |
| GLTFDDKAMH | GISTNSGSIGYADSVK | VGRGGGYFDY | nd / nd / nd | 0 of 9 |
| GFTFDDYAMH | GISWNSGSIGYADSSK | TGRGGGAFDY | 5.34 / 5.53 / 5.50 | 7 of 9 (4.95) |

The 3 strongest on average among those seen in every replicate, once more:

{"CDR-H1": "GFFFDDYAMH", "CDR-H2": "GISWNSGSIGYADSVK", "CDR-H3": "VGRGGCYFFY", "log10 Kd, replicates": "1.14 / 1.39 / 0.72", "empty controls": "2 of 9 (4.45)"}
{"CDR-H1": "GFTFDDYAMH", "CDR-H2": "GVSWNSGSIGYADSVK", "CDR-H3": "TGRGGGFFDY", "log10 Kd, replicates": "1.27 / 1.18 / 1.15", "empty controls": "3 of 9 (4.06)"}
{"CDR-H1": "GFTFDDYAMH", "CDR-H2": "GISWNSGFIGYHDSVK", "CDR-H3": "VGRGGGYFDY", "log10 Kd, replicates": "2.52 / 2.73 / 2.71", "empty controls": "4 of 9 (4.83)"}

In this assay the parent's reference entry averaged 1.86; its copy inside this library read 0.88.
Background: pairings of library AAYL51 with three empty control strains gave a value in 21% of cases (median 4.54, 5th percentile 3.26). Values in that range, when seen in few replicates, are hard to tell from nonspecific mating. For each scFv, signals with the empty controls are counted beside the result, with their mean in brackets.